Reference: patent US20210347827A1

Biological target: immunoglobulin G (IgG) obtained from human serum (human)
Test: IgG (2 mg/mL) bound to beads carrying immobilized Protein A, washed, read by SDS-PAGE

increase of binding activity against the protein A monomer beads: > 15%
Substance: Protein A polymer (Protein A linear multimer polymer made by the Ubstac reaction, immobilized on latex beads) (from UniProt P0CG48 1-76)
